Drawing on US9809822B2, “Triptolide derivatives and preparation method and use thereof” (priority 2013, dated 2017), this text covers TP concentration for one compound.

The data set in a line: Distribution of triptolide / triptolide-nucleolin aptamer conjugate within tissues by HPLC, BxPC-3 xenograft tumor-bearing mice. To be noted: female, nude, mouse, in vivo, 24 h. The source says:
BxPC-3 cells in logarithmic growth phase were used.
Samples A and B in 2.2.2 were used.

`CC(C)[C@]12O[C@H]1[C@@H]1O[C@]13[C@]1(O[C@H]1C[C@H]1C4=C(CC[C@@]13C)C(=O)OC4)[C@@H]2O` [Triptolide]: the TP concentration came out at 16.4 ng/mL.
